# Measured values from PubChem BioAssay AID1906 (The Scripps Research Institute Molecular Screening Center, 2009).
# Only a part is listed here, and it is no random draw. Some tests of the compounds listed are not included; inactive here does not mean inactive elsewhere. The source made the active and inactive calls.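 How the source made its calls: active means inhibition above the mean of all tested compounds plus 3 SD, set per screening campaign (cut at about 17% in these data); inactive means the rest.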
# System: cathepsin L1 (Fasciola hepatica)
# Assay: Fasciola hepatica cathepsin L1 inhibitors, primary screen, counter-screen for PFM18AAP inhibitor project, biochemical, QFRET, fluorogenic peptide substrate (AID 1906);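 further: 0% = plate median of test compound wells and 100% = 1 µM Z-Phe-Ala-diazomethylketone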
# Details: recombinant F. hepatica cathepsin L1, Z-Leu-Arg-MCA fluorescence; at 5.96 µM; stronger effect = higher value
row,SMILES,inhibition
1,O=C(NCC1(N2CCCCC2)CCCCC1)c1cc([N+](=O)[O-])ccc1Cl,inactive: 5.62%
2,CN1[C@@H]2CC[C@H]1CC(OC(=O)C(O)(c1ccccc1)c1ccccc1)C2 (some centres undefined),inactive: 1.45%
3,CC(C)N1C(=O)CC2(CCN(CCOC(=O)C(O)(c3ccccc3)c3ccccc3)CC2)C1=O,inactive: 0.04%
4,COc1cc(SC)ccc1C(=O)NCC1(N(C)C)CCCCC1,inactive: 6.77%
5,CCN(CC)CC(C)C(C)OC(=O)C(O)(c1ccccc1)c1ccccc1 (centres undefined),inactive: 1.72%
6,Cc1ccc(C(=O)NCC2(N3CCCCC3)CCCCC2)cc1,inactive: 12.3%
7,CN(C)C1CCCC1OC(=O)C(O)(c1ccccc1)c1ccccc1 (centres undefined),inactive: 5.45%
8,CN(C)c1ccc(C(=O)NCC2(N(C)C)CCCCC2)cc1,inactive: 0.46%
9,Cc1ccccc1C(=O)NCC1(N2CCCCC2)CCCCC1,active: 27.2%
10,O=C(NCC1(N2CCCCC2)CCCCC1)c1cc(F)c(F)cc1Cl,inactive: 13.8%
11,C=CCN1CCN(CCOC(=O)C(O)(c2ccccc2)c2ccccc2)CC1,inactive: -3%
12,O=C(NCC1(N2CCCCC2)CCCCC1)c1cccc(Br)c1,inactive: -0.46%
13,Cc1cc(C(=O)NCC2(N3CCCCC3)CCCCC2)ccc1[N+](=O)[O-],inactive: 1.22%
14,CCN1CCCC(OC(=O)C2(O)c3ccccc3C=Cc3ccccc32)C1 (centres undefined),inactive: 0.15%
15,COc1ccc(C(=O)NCC2(N(C)C)CCCCC2)cc1,inactive: 2.38%
16,CN(C)C1(CNC(=O)c2ccc(Br)cc2)CCCCC1,inactive: -3.67%
17,COc1cc(C(=O)NCC2(N(C)C)CCCCC2)c([N+](=O)[O-])cc1OC,inactive: 1.68%
18,COc1ccc(Cl)cc1C(=O)NCC1(N(C)C)CCCCC1,inactive: -1.1%
19,COc1cccc(C(=O)NCC2(N3CCCCC3)CCCCC2)c1,inactive: 4.7%
20,O=C(NCC1(N2CCCCC2)CCCCC1)c1cccc(Cl)c1,inactive: 1.49%
21,O=C(OC1CN2CCC1CC2)C(CO)(c1ccccc1)c1ccccc1 (centres undefined),inactive: -0.38%
22,COc1ccc(Br)c(C(=O)NCC2(N3CCCCC3)CCCCC2)c1,active: 24.9%
23,CN(C)c1cccc(C(=O)NCC2(N(C)C)CCCCC2)c1,inactive: -1.59%
24,CC(C)Oc1ccc(C(=O)NCC2(N(C)C)CCCCC2)cc1,inactive: 5.12%
